Species on record: Homo sapiens
Assay: Selectivity ratio of IC50 for human His-tagged human CDK2 (M1 to L298 residue)/cyclin E1 (M1 to A395 residue) expressed in sf9 insect cells to IC50 for His-tagged human CDK9/cyclin T1 expressed in insect cells

How did the Ratio IC50 turn out when `CS(=N)(=N)Cc1cc2cc(c1)OCCCCOc1cc(F)ccc1-c1nc(ncc1F)N2` was run?
The Ratio IC50 was 500.
